Test in all cases: ALDH isoform-specific enzyme assay (NADH absorbance 340 nm)
Format in all cases: biochemical

By UniProt entry, the sequences of proteins in these tests, tags left out. Where a name states a change or a piece, a line headed by the entry shows the natural chain unless it says otherwise.
UniProt P00352: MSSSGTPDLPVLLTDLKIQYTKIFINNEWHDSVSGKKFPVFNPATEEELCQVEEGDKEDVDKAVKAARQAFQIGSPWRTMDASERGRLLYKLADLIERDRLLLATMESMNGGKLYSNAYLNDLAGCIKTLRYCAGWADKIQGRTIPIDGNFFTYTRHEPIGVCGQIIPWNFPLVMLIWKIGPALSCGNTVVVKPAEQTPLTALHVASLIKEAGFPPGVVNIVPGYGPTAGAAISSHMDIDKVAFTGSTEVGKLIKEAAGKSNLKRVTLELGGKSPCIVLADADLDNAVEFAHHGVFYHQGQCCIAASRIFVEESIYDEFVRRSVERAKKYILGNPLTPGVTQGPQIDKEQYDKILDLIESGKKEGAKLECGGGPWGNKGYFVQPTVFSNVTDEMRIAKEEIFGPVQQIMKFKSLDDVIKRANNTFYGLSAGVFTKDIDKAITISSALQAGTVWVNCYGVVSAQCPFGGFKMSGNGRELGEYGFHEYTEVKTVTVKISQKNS

One assay deals with T1, ALDH2 (Homo sapiens, UniProt P05091).
T1 construct: purchased R & D Systems, Inc, Minneapolis, Minn., USA
T1 sequence (P05091 18-517): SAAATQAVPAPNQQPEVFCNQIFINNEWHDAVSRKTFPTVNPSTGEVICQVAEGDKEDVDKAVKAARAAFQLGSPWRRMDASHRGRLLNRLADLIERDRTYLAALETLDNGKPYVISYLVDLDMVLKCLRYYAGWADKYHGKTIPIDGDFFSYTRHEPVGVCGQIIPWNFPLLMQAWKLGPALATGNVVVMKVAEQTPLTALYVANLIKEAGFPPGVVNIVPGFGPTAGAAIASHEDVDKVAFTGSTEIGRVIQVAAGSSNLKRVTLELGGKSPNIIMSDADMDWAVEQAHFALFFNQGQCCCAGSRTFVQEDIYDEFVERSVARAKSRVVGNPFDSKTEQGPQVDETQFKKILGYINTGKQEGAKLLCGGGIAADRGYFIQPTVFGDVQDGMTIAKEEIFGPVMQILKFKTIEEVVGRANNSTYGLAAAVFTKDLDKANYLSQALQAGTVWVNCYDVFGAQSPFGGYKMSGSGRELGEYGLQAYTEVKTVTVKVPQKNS
Conditions: Study 1; read-out: IC50s ALDH2.

Another assay concerns the target T2, ALDH3A1 (Homo sapiens, UniProt P30838).
T2 construct: purchased R & D Systems, Inc, Minneapolis, Minn., USA
T2 sequence (P30838 1-453): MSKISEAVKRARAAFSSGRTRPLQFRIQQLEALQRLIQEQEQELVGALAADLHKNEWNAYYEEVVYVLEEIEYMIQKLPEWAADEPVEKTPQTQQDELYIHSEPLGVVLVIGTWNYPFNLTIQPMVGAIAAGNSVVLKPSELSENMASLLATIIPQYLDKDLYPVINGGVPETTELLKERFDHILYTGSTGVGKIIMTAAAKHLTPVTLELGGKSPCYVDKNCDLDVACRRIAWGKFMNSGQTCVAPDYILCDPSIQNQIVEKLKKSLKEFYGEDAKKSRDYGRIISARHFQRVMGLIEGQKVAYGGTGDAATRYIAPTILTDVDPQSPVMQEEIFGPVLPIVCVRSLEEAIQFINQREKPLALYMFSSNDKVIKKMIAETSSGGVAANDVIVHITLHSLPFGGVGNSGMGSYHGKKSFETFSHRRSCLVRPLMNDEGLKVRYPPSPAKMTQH
Conditions: Study 1; read-out: IC50s ALDH3A1.

In another assay the target is T3, ALDH1A1 (Homo sapiens, UniProt P00352).
T3 construct: purchased R & D Systems, Inc, Minneapolis, Minn., USA
Conditions: Study 1; read-out: IC50s ALDH1A1.

On to CVT10216, for which the IC50 on ALDH2 turned out to be 53 nM; on ALDH3A1, 2720 nM; on ALDH1A1, 2430 nM.

Values taken from patent publication US20220175723A1, “METHODS AND COMPOSITIONS RELATING TO INHIBITION OF ALDEHYDE DEHYDROGENASES FOR TREATMENT OF CANCER” (THE PENN STATE RESEARCH FOUNDATION, priority 2019, published 2022).
